According to patent US8911750B2, “Lung volume reduction therapy using crosslinked biopolymers” (priority 2007, dated 2014):

Assay: Polymerization time of human serum albumin/glutaraldehyde mixtures in vitro (tube inversion)
Format: physicochemical
Settings: at similar concentrations, with GA
Method: In order to measure polymerization times, as described above, an albumin mixture (0.9 mL), which may include polyvinylpyrrolidone or dextran, was prepared in 2 mL microfuge tube. A glutaraldehyde mixture (0.1 mL) was then added. The combination was mixed for 5 seconds with Vortex. The microfuge tube inverted every 3 to 15 seconds. Polymerization time recorded when mixture no longer deforms visibly with inversion.
Serial dilutions of GA were combined with a fixed concentration of HSA to assess the effects of GA concentration on polymerization time. GA at concentrations from 0.25 to 0.5% GA was polymerized with 22.5% albumin (Note: all concentrations are listed as concentration after final mixing). The experiments were repeated with the addition of 4.5 or 9% PVP.

**Q.** For “HSA: 25% Human serum albumin (Baxter 1500233)”, which “polymerization speed compared with BSA” value is on record?
**A.** polymerize more quickly than BSA
